Common to all, as to assay type: cell-based
Test [1] concerns the target κ opioid receptor (Homo sapiens, UniProt P41145). Briefly: FLIPR intracellular calcium signal test, HEK293-κ cells. Particulars: for EC50: read-out: Kapp receptor EC50, EC50 (activation) test; for IC50: read-out: Kapp receptor IC50, IC50 (inhibition) test against EC80 of positive agonist. As for the experimental part: (§1) Fluorescence imaging plate reader FLIPR was used to detect changes of intracellular calcium signals. EC50 and IC50 values of the compounds were used as indicators to evaluate the activation or inhibition of the compounds on μ, κ, and δ opioid receptors.
(§2) Cell lines: HEK293-μ, HEK293-κ and HEK293-δ, stable-transfected cell lines HEK293-μ, HEK293-κ and HEK293-δ; Cell culture media (DMEM, Invitrogen #11965118, 10% fetal bovine serum Invitrogen #10099141, Geneticin Selective Antibiotic (G418) 300 μg/mL, Invitrogen #10131027, Blasticidin-S HCL 2 ug/mL Invitrogen #A1113902)
(§3) 1. Cell Seeding (HEK293-μ, HEK293-κ and HEK293-δ Cells)
(§4) 1) Preheating medium, pancreatic enzyme, and DPBS in a 37° C. water bath. Aspirating the culture medium from the cell culture flask and washing it with 10 mL DPBS;
(§5) 2) Adding the preheated pancreatic enzyme solution to the cell culture flask, rotating the flask slightly to make the pancreatic enzymes evenly cover the cell surface of the flask, and then putting it into a 37° C., 5% CO2 incubator to digest for 1-2 minutes;
(§6) 3) Suspending the cells with 10-15 mL culture medium in each T150 cm^2 cell culture flask, centrifugating at 800 rpm for 5 minutes, and resuspending the cells with 10 mL culture medium, aspirating 1 mL cell resuspension to be counted with Vi-cell;
(§7) 4) Diluting HEK293-μ, HEK293-κ and HEK293-δ cells to 5×10^5/mL with culture medium, use multichannel pipette to add diluted cells into 384 plate (Greiner #781946) (50 μL/well, 25000 cells/well for HEK293-μ, HEK293-κ and HEK293-δ cells). Placing the cell plate in a 37° C., 5% CO2 incubator overnight.
(§8) 2. Adding Compound Samples:
(§9) 1) Diluting the compound to 20 mM with DMSO, 3 fold diluted, 8 gradients, double reduplicative wells, and adding it to the compound plate using an Echo ultrasonic liquid handler device (Echo liquid handler).
(§10) 1) Washing off the cell culture medium in 384 plate with vacuum pump, adding 20 μL Fluo-4 Direct fluorescent dye, then incubating in a 37° C., 5% CO2 incubator for 50 minutes, followed by equilibrating at room temperature for 10 minutes.
(§11) 2) EC50 test: Adding 20 uL HBSS buffer (containing 20 mM HEPES) to the compound plate, mixing well and centrifugating. Placing the cell plate and compound plate into FLIPR and reading the fluorescence value.
(§12) 3) After the EC50 test, placing the cell plate into a 37° C., 5% CO2 incubator to be incubated for 25 minutes. Calculating the EC80 value with the EC50 value of the positive agonist, preparing 4× EC80 solution, adding it to the 384 compound plate by multichannel pipette, and mixing well and centrifugating.
(§13) 4) IC50 test: In FLIPR, successively placing 4× EC80 plate, cell plate, FLIPR tip, running the program and reading the fluorescence value.
4. […]

By UniProt entry, the sequences of proteins in these tests, tags left out.
UniProt P41145, whole entry: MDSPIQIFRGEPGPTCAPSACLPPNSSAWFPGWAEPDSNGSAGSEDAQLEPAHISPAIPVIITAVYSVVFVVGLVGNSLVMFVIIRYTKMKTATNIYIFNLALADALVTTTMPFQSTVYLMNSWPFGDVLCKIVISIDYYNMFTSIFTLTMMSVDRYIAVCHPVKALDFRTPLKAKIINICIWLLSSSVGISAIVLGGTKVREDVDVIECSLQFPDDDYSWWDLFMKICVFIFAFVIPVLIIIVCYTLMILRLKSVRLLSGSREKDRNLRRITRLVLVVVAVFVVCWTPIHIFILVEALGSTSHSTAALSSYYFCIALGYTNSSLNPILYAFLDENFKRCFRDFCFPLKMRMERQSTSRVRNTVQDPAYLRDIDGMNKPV
UniProt P35372, whole entry: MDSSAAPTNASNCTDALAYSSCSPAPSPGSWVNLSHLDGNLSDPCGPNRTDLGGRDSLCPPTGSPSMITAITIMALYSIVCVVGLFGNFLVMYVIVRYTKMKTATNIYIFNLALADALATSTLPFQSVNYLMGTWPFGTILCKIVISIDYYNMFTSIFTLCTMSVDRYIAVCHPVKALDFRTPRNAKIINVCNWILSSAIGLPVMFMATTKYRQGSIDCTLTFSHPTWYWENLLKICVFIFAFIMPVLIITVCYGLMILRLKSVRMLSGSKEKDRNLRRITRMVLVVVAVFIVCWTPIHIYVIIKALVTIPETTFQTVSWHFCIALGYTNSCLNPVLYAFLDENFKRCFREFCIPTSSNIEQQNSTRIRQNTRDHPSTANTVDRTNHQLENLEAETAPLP

In test [2] the target is δ opioid receptor (Homo sapiens, UniProt P41143). Description: FLIPR intracellular calcium signal test, HEK293-δ cells. Particulars: for EC50: read-out: Delt receptor EC50, EC50 (activation) test; for IC50: read-out: Delt receptor IC50, IC50 (inhibition) test against EC80 of positive agonist. As for the experimental part: as §1, §2, §3, §4, §5, §6, §7, §8, §9, §10, §11, §12, §13
4. […]
On the technique in general: Calcium flux is commonly read through the fluorescence of an indicator in the cells.

Test [3] concerns the target μ opioid receptor (Homo sapiens, UniProt P35372). Briefly: FLIPR intracellular calcium signal test, HEK293-μ cells. Particulars: for EC50: read-out: Mu receptor EC50, EC50 (activation) test; for IC50: read-out: Mu receptor IC50, IC50 (inhibition) test against EC80 of positive agonist.

One may read the EC50 as the concentration at which the effect is half-maximal. As a reminder, the IC50 is the concentration needed to halve the response being measured.

Regarding `CCC12CCCCC(Cc3c(F)cc(O)cc31)C2N` (single isomer, unassigned) [Compound 28], the values for the EC50 in test [1], in test [2] and in test [3] were above 100000 nM, above 100000 nM and below 100 nM, respectively. The values for the IC50 in test [1], in test [2] and in test [3] were 100 to 1000 nM, 1000 to 10000 nM and 100 to 1000 nM, respectively.
For the compound `CCC12CCCCC(Cc3c(F)cc(O)cc31)C2N` (single isomer, unassigned) [Compound 29], the concentration giving a half-maximal response (EC50) was above 100000 nM in test [1], above 100000 nM in test [2] and below 100 nM in test [3]. Also, the IC50 in test [1] is 1000 to 10000 nM; in test [2] it was 10000 to 100000 nM; in test [3], 100 to 1000 nM.

These data come from patent publication US10414718B2, “Dezocine analogue” (priority 2016, dated 2019).
